Patent publication US20140371160A1 (ALTEOGEN, published 2014)

Key:
[1] = target: T1, Porcine pancreatic elastase (Calbiochem, Cat. 324682) (porcine, UniProt P00772 27-266); assay: equilibrium constant Ka=[EI]/[E]f/[I]f from elastase activity with AAA-pNA substrate
T1 construct: Commercial enzyme; also called PPE
T1 sequence (looked up): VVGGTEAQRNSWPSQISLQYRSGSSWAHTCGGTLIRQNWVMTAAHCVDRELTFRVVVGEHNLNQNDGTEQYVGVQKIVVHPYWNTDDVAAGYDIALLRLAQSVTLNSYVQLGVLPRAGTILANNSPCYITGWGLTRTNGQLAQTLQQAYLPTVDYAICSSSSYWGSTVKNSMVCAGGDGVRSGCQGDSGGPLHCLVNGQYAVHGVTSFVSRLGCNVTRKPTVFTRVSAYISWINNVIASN
Experimental: (§1) Porcine pancreatic elastase (Calbiochem, Cat. 324682) and AAA-pNA (N-Succinyl-Ala-Ala-Ala-p-nitroanilide, Sigma, S4760) were used as an enzyme and a substrate, respectively, to measure the rate constants of the alpha-1 antitrypsin and variants thereof. More particularly, the porcine pancreatic elastase and the alpha-1 antitrypsin and variants thereof were mixed at the same molar ratio, and reacted at 25° C. for 120 seconds, 300 seconds, and 600 seconds. Thereafter, the AAA-pNA was added to the resulting reaction mixture, and measured for kinetics for 5 minutes at intervals of one minute. In the final reaction, the concentrations of the porcine pancreatic elastase and the alpha-1 antitrypsin and variants thereof were 20 nM, and the concentration of the AAA-pNA was 1 mM.
Also, the equilibrium constant of the alpha-1 antitrypsin and variants thereof was calculated using the following equation.

[2] = target: T1, Porcine pancreatic elastase …; assay: remaining elastase activity after 120, 300 and 600 s at equal molar ratio (20 nM each), AAA-pNA substrate, 25 C
Experimental: as §1
Because the reaction of the porcine pancreatic elastase with the alpha-1 antitrypsin and variants thereof was an irreversible secondary reaction (Levenspiel O. Chemical reaction engineering, 2nd edition. 1972, Wiley, New York), the rate constant was calculated by the equation: 1/R=kaCE0t+1 [R=Remaining PPE activity, ka=Rate constant (M⁻¹ s⁻¹), CE0=Initial concentration of AAT (M), and t=Reaction time (seconds)]. The association rate constant (ka) was calculated using the activities of porcine pancreatic elastase remaining at each reaction time.

B1: Alpha-1 antitrypsin variant AT9N (glutamine at the 9th position substituted with asparagine), expressed in CHO-K1 cells (other)
chain: EDPQGDAANKTDTSHHDQDHPTFNKITPNLAEFAFSLYRQLAHQSNSTNIFFSPVSIATAFAMLSLGTKADTHDEILEGLNFNLTEIPEAQIHEGFQELLRTLNQPDSQLQLTTGNGLFLSEGLKLVDKFLEDVKKLYHSEAFTVNFGDTEEAKKQINDYVEKGTQGKIVDLVKELDRDTVFALVNYIFFKGKWERPFEVKDTEEEDFHVDQVTTVKVPMMKRLGMFNIQHCKKLSSWVLLMKYLGNATAIFFLPDEGKLQHLENELTHDIITKFLENEDRRSASLHLPKLSITGTYDLKSVLGQLGITKVFSNGADLSGVTEEAPLKLSKAVHKAVLTIDEKGTEAAGAMFLEAIPMSIPPEVKFNKPFVFLMIDQNTKSPLFMGKVVNPTQK
modifications: added N-glycosylation site at asparagine 9, besides asparagine 46, 83 and 247
notes: Written here as the M3 variant, since it is compared with T003; Positions count from the N-terminus of mature alpha-1 antitrypsin; also called Q9N
Ka [1]: 3.04e+09 M⁻¹ | kon [2]: 600000 M⁻¹ s⁻¹
